Results from patent US6020328A, “20-keto-11β-arylsteroids and their derivatives having agonist or antagonist hormonal properties” (Research Triangle Institute, priority 1998, dated 2000).

Experiments:
rabbits [1] = assay: McGinty test (agonist, test compound alone); format: in vivo, rabbit
rabbits [2] = assay: anti-McGinty test (antagonist, test compound plus progesterone); format: in vivo, rabbit

## CC(=O)[C@@]1(OC(=O)Cc2ccccc2)CC[C@H]2[C@@H]3CCC4=CC(=O)CCC4=C3[C@@H](c3ccc(N(C)C)cc3)C[C@@]21C [I 4-Me2 N H O H O--CO--CH2 C6 H5 H, 11β-[4-(N,N-Dimethylamino)phenyl]-17α-phenylacetoxy-19-norpregna-4,9-diene-3,20-dione]
Rabbits [1]; dose 0.3 micrograms
  McPhail Index, McGinty Assay (Agonist): 0 +/- 0
Rabbits [1]; dose 3 micrograms
  McPhail Index, McGinty Assay (Agonist): 0.1 +/- 0.1
Rabbits [1]; dose 30 micrograms
  McPhail Index, McGinty Assay (Agonist): 0 +/- 0
Rabbits [2]; dose 0.3 micrograms
  McPhail Index, McGinty Assay (Antagonist): 2.3 +/- 0.3
Rabbits [2]; dose 3 micrograms
  McPhail Index, McGinty Assay (Antagonist): 3.1 +/- 0.1
Rabbits [2]; dose 30 micrograms
  McPhail Index, McGinty Assay (Antagonist): 1.2 +/- 0.2
